The text below walks through data of patent publication US11253506B2, “Compounds, compositions and methods for preventing and/or treating chlorine inhalation toxicity and/or injury” (dated 2022).

For data set [1], the system named is animals exposed to toxic inhalational levels of chlorine. As to the kind of experiment: Ability of therapeutic agents to stabilize and/or rescue animals exposed to toxic inhalational levels of chlorine. The conditions noted are these: for ability to stabilize and/or rescue animals exposed to toxic inhalational levels of chlorine: in some cases even worsened the animal's overall condition; for effects on animals exposed to high inhalational levels of chlorine: in vivo.

The subject of data set [2] is rats exposed to chlorine gas. As to the kind of experiment: Survival after massive chlorine inhalation.
Data set [3] has as its system rats exposed to chlorine gas. As to the kind of experiment: Arterial blood gas and blood chemistry after chlorine inhalation.
Data set [4] has as its system rats exposed to chlorine gas. Nature of the data set: Observational neuromuscular/ataxia scoring after chlorine inhalation. The conditions noted are these: scopolamine, severe chlorine exposure.
The test system of data set [5] is rats exposed to chlorine gas. Nature of the data set: Oxygen saturation, respiratory rate and clinical distress scoring after chlorine inhalation.
Data set [6] has as its system rats exposed to chlorine gas. As to the kind of experiment: Heart rate, cardiac output, stroke volume and pulmonary artery pressure after chlorine inhalation (cardiac catheterization). The settings on record: scopolamine, severe chlorine exposure.
[7] abbreviates: scopolamine, severe chlorine exposure.

For “manganese(III)meso-tetrakis(N,N′-diethyl-1,3-imidazolium-2-yl)porphyrin”, in data set [1], the “ability to stabilize and/or rescue animals exposed to toxic inhalational levels of chlorine” value (shortened to “ability”) is given as “ineffective”. The same measure, in the same setting: the entry for sodium bicarbonate is “ineffective”; for `CC(CCc1ccc(O)cc1)NCCc1ccc(O)c(O)c1` (stereo not shown) it is “ineffective”.

In the case of `CN1[C@@H]2C[C@@H](OC(=O)[C@H](CO)c3ccccc3)C[C@H]1C1OC12` (stereo partly shown), the “survival to 6 hours” value in data set [2] (scopolamine, route variation study, severe chlorine exposure) was “improved”. For the same molecule, in data set [3] (setting [7]), the “ABG (arterial blood gas)” value is recorded as “improved”. The “ataxia and seizure activity” value in data set [4] was “decreases”. Also, the SpO2 result in data set [5] (setting [7]) is recorded as “does not improve”. Moreover, in data set [1], the “effects on animals exposed to high inhalational levels of chlorine” value is recorded as “beneficial effects”. Also, the heart rate result in data set [6] is on record as “does not improve”. For 2-pyridine aldoxime methyl chloride, in data set [2] (2-PAM IM 40 mg/kg with atropine after chlorine, n=1 survived to 1 hour), the “time to death after dosing (n=5)” value is recorded as at most 10 min. In addition, the “blood acidosis values (pH, paCO2, lactate)” value in data set [3] (2-PAM addition to atropine) is “no improvement”. Moreover, the blood cyanide levels entry in data set [3] (after 2-PAM IM 40 mg/kg with atropine in chlorine-exposed rats) was “undetectable”. In addition, the oxygen saturation entry in data set [5] (2-PAM after LD60-75 chlorine) is on record as “no effect”. Also, in data set [1], the “ability” value is on record as “ineffective”. Regarding `COc1ccccc1OCC(O)CN1CCN(CC(=O)Nc2c(C)cccc2C)CC1` (stereo not shown), the “ability” value in data set [1] is “ineffective”. With `O=[N+]([O-])c1nccn1CC(O)CN1CCCCC1` (stereo not shown), the “ability” value in data set [1] is reported as “ineffective”. Still for that read-out and setting: the entry for racemic epinephrine is “ineffective”. For the molecule inhaled nitric oxide, the “ability” value in data set [1] is reported as “ineffective”. On to `CN1[C@@H]2CC[C@H]1C[C@@H](OC(=O)C(CO)c1ccccc1)C2` (stereo partly shown), for which the “effects on animals exposed to high inhalational levels of chlorine” value in data set [1] is “beneficial effects”. As to cobinamide, in data set [1], the “ability” value is given as “ineffective”. Turning to `COc1ccccc1Oc1c(NS(=O)(=O)c2ccc(C(C)(C)C)cc2)nc(-c2ncccn2)nc1OCCO`, in data set [2] (bosentan after massive chlorine inhalation), the mortality entry is recorded as “increased mortality”. The “ability” value in data set [1] is reported as “ineffective”.
